These results are taken from BindingDB's records for doi:10.7270/Q2CV4GM1 (D3R/Abbott, 2015).

This experiment deals with T1, Tyrosine-protein kinase SYK [355-635] (Homo sapiens, UniProt P43405).
T1 construct: 355-635
The experiment in a line: SYK assay_HTRF.

“And” between values parts separate entries of the source, which are not always exact repeats. Equal entries are not always repeated.

For the compound `CS(=O)(=O)c1cccc(Nc2nccc(Nc3cccc4[nH]ncc34)n2)c1` [N4-(1H-indazol-4-yl)-N2-(3-(methylsulfonyl)phenyl)pyrimidine-2,4-diamine], the IC50 (usually the concentration that gives 50% inhibition) is 65.2 nM and 136 nM and 237 nM and 547 nM.
